Assay results taken from paper PMC5341070, “Small molecule inhibitors block Gas6-inducible TAM activation and tumorigenicity” (Scientific Reports, 2017).

Sequences of proteins named here, by UniProt entry; tags and fusion partners are left off.
UniProt P00519, whole entry: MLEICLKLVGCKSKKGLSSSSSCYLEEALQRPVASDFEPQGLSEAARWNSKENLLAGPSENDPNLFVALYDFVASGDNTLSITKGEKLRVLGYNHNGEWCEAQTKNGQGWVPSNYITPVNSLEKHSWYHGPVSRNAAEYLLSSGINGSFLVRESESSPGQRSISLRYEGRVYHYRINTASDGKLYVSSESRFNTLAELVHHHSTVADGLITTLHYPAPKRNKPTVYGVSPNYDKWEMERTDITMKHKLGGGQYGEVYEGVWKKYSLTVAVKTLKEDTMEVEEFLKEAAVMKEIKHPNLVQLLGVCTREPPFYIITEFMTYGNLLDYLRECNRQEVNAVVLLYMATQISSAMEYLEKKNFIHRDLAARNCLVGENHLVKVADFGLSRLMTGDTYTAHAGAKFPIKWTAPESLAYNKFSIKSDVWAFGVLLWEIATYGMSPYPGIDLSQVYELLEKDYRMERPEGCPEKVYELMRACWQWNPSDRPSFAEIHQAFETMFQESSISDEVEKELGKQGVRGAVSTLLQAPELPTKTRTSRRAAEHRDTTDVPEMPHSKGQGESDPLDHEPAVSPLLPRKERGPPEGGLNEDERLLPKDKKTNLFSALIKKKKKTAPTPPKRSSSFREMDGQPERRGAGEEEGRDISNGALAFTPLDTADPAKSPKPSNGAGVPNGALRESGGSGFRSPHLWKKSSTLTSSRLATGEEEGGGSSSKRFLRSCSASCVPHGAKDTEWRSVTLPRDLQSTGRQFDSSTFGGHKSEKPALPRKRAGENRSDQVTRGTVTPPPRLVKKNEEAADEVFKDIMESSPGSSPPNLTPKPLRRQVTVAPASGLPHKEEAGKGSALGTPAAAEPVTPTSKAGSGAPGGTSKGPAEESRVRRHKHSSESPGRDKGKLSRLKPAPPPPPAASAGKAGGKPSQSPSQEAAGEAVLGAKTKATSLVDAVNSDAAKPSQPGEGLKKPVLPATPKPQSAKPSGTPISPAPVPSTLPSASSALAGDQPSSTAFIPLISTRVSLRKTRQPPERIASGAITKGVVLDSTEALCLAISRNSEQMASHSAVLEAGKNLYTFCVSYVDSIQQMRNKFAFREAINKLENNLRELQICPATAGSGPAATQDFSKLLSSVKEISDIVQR

Biological target: T1, ABL1-phosphorylated (Homo sapiens, UniProt P00519)
T1 construct: phosphorylated
Experiment: biochemical
Set-up: KINOMEscan (DiscoverX) competition binding screen of 97 human kinases, percent of control at 10 uM
Settings: read-out: R428 %Ctrl @ 10000nM; binding competition, % of control
Method: The KINOMEscan profiling of the inhibitors were performed as per directions by the manufacturer (DiscoverX) against a panel of human protein kinases.

- remaining binding at 10 µM: 0.1%
SMILES: Nc1nc(Nc2ccc3c(c2)CC[C@@H](N2CCCC2)CC3)nn1-c1cc2c(nn1)-c1ccccc1CCC2 [R428]
